# From US20040121965A1, “Method of treating resistant tumors” (Wyeth Holdings Corporation, priority 2002, published 2004)
# What was measured:
# KB-8-5 (MDR1+) = experiment: Cell survival assay (SRB), KB-8-5 (MDR1+)
# KB-V1 (MDR1++) = experiment: Cell survival assay (SRB), KB-V1 (MDR1++)
substance,measurement,setting,value
"(2E,4S)-2,5-dimethyl4-(methyl{(2S)-2-[(N,β,1-trimethyl-L-phenylalanyl)amino]butanoyl}amino)hex-2-enoic Acid Trifluoroacetic Acid [Example 99]",Ratio KB85/KB,KB-8-5 (MDR1+),1.4
same,Ratio KBV1/KB,KB-V1 (MDR1++),22.0
"(2E,4S)4-[{(2R)-2-cyclohexyl-2-[(N,β,1-trimethyl-L-phenylalanyl)amino]ethanoyl}(methyl)amino]-2,5-dimethylhex-2-enoic Acid Trifluoroacetic Acid [Example 98]",Ratio KB85/KB,KB-8-5 (MDR1+),1.4
same,Ratio KBV1/KB,KB-V1 (MDR1++),22.2
